Experiments:
[1] = biological target: T1, SIRT2 (Homo sapiens, UniProt Q8IXJ6); details: tubulin heterodimers from bovine brain, 2 hours; compared with inactive compound control and SIRTINOL
T1 sequence (Q8IXJ6 1-389): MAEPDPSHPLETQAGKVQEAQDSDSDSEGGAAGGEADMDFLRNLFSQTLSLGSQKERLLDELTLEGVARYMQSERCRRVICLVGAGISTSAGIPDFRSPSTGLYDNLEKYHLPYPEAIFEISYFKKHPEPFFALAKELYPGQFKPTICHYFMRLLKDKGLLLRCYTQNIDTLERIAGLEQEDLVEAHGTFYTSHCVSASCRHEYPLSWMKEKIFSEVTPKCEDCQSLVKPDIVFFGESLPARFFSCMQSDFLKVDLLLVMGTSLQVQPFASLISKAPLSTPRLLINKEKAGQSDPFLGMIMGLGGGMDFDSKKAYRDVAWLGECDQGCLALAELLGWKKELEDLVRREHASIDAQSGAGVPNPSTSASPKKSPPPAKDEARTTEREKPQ

[2] = biological target: T1, SIRT2; details: myc-tagged SIRT2 expressed in HeLa cells
[3] = biological target: SIRT2 (Homo sapiens, UniProt Q8IXJ6)
[4] = biological target: T1, SIRT2; assay: Fluorescent SIRT enzyme assay (recombinant enzyme, fluorescent peptide substrate); assay type: biochemical; parameters: purchased Biomol (Plymouth Meeting, Pa.); details: SIRT2 IC50 compared with B2

N#C/C(=C\c1ccc(-c2cc(Cl)ccc2Cl)o1)C(=O)Nc1cccc2ncccc12 [AGK2]
acetylated tubulin level [1]: increase in acetylated tubulin
inhibition of immunoprecipitated SIRT2 [2]: able to inhibit SIRT2
competition with protein substrates [3]: no competition
competition with the co-factor NAD+ [3]: weakly competed
increase in potency of AGK2 over B2 [4]: 10 fold
